Biological target: Sodium-dependent serotonin transporter (Rattus norvegicus, UniProt P31652)

By UniProt entry, the sequences of proteins in these tests, tags left out.
UniProt P31652, whole entry: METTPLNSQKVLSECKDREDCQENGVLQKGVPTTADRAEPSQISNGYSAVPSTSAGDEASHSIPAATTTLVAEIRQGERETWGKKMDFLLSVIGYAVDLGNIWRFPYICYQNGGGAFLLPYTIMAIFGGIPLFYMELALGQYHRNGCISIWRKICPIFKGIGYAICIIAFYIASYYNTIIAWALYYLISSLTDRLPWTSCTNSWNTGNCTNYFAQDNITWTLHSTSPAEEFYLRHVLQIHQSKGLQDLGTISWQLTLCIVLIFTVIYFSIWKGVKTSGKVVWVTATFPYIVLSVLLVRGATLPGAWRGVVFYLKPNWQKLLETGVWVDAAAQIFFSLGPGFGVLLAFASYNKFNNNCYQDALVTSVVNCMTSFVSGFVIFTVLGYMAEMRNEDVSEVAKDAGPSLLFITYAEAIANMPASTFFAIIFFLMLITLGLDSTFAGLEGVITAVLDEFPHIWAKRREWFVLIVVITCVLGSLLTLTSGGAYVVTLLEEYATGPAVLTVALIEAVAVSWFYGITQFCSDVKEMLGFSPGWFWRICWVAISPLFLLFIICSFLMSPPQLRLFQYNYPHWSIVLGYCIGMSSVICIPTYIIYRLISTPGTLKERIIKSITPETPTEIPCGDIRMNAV

| Ki [nM] | Structure (SMILES) |
| --- | --- |
| 58.2 | CCn1cc([C@H]2CC[C@H](N3CCN(c4cccc5[nH]ccc45)CC3)CC2)c2cc(C#N)ccc21 |
| 4.6 | Fc1ccc2[nH]cc([C@H]3CC[C@@H](N4CCN(c5cccc6cccnc56)CC4)CC3)c2c1 |
| 39.3 | Fc1ccc2[nH]cc([C@H]3CC[C@H](N4CCN(c5cccc6cccnc56)CC4)CC3)c2c1 |
| 26.7 | CCCn1cc([C@H]2CC[C@@H](N3CCN(c4cccc5[nH]ccc45)CC3)CC2)c2cc(C#N)ccc21 |
| 13.4 | CCn1cc([C@H]2CC[C@@H](N3CCN(c4cccc5[nH]ccc45)CC3)CC2)c2cc(C#N)ccc21 |
| 3.3 | Cn1cc([C@H]2CC[C@@H](N3CCN(c4cccc5[nH]ccc45)CC3)CC2)c2cc(C#N)ccc21 |
| 102 | Cn1cc([C@H]2CC[C@H](N3CCN(c4cccc5[nH]ccc45)CC3)CC2)c2cc(C#N)ccc21 |
| 62.5 | CCCn1cc([C@H]2CC[C@H](N3CCN(c4cccc5[nH]ccc45)CC3)CC2)c2cc(C#N)ccc21 |

Source: ChEMBL document CHEMBL1155057, “Studies toward the discovery of the next generation of antidepressants. Part 6: Dual 5-HT1A receptor and serotonin transporter affinity within a class of arylpiperazinyl-cyclohexyl indole derivatives” (Bioorg Med Chem, 2008)
